Reference: patent US9920058B2, “Molecules with potent DHFR binding affinity and antibacterial activity” (Georgia Tech Research Corporation, priority 2013, dated 2018)
Values after ≈ are worked out from the molar mass of the structure shown.

Tested on: vancomycin-resistant E. faecium (ATCC700221) (VREF)
Experiment: Antimicrobial growth inhibition (MIC), VREF
Details: Enterococcus faecium, ATCC700221, read-out: VREF (MIC)

Q: For Nc1nc2[nH]cc(CCc3ccc(C(=O)N[C@@H](CCC(=O)O)C(=O)O)cc3)c2c(=O)[nH]1 [NSC698037, pemetrexed], which MIC is on record?
A: The MIC was 500 µg/mL (≈ 1170 µM).
